## Apparent affinities of Ab-14 variants for a coronavirus HR2 peptide

Target: peptide PDVDLGDISGINAS, taken from heptad repeat 2 (HR2) of SARS-CoV-2 spike.

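Phage display of a naive human antibody library on the peptide gave the parent. Variants in AAYL49 differ from the parent at up to three CDR positions; double and triple changes were sampled at random. Affinity was read by AlphaSeq, a pooled yeast mating assay with surface-displayed partners. Pairs that bind mate more often; barcode pairs of the diploids are counted by sequencing. Each replicate has its own calibration line, from reference interactions of the BCL2 family. There are three technical replicates.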

Each scFv is VH, three GGGGS repeats, VL, as in the parent Ab-14, and differs from it in the CDRs of the heavy chain only.
VH: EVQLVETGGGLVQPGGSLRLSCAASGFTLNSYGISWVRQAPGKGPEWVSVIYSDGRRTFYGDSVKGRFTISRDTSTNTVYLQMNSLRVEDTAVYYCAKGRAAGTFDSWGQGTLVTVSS
VL: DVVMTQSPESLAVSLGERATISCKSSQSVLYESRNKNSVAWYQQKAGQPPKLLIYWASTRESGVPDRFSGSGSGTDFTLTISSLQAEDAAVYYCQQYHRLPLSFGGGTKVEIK

Changes read parent residue, position, new residue, counted from the first residue of the VH shown. All variants listed here change R57 of the VH, counted from its first residue. Values are apparent Kd, the geometric mean of the replicates that gave a signal; lower means stronger binding. A pair that was not seen in any replicate is written "nd"; this usually means weak binding, but a binder can also be missed. Entries are sorted by rising average, undetected variants last.

For R57L/T58R/K65R, the assay gave 1.8 µM (1 of 3 replicates). The variant F27T/D54V/R57Y gave 2.3 µM (1 of 3 replicates). With R57W/Y60N/S107C the result was 3.0 µM (1 of 3 replicates). The variant I51V/Y52Q/R57S gave 3.5 µM (1 of 3 replicates). With T28A/R57V/F105D the result was 5.7 µM (1 of 3 replicates). With S31V/Y32S/R57I the result was 11 µM (2 of 3 replicates). For S31E/G55I/R57F, the assay gave 17 µM (1 of 3 replicates). The variant Y32P/R57N/A102I gave 26 µM (2 of 3 replicates). The variant D54M/R57W/G61K gave 88 µM (3 of 3 replicates).

For I34S/R57V/Y60D, the assay gave 110 µM (2 of 3 replicates). With T28I/R57D/D62V the result was 130 µM (1 of 3 replicates). For F27K/R57G/G103N, the assay gave 1.3 mM (2 of 3 replicates). The variant I51C/R57F showed nd (0 of 3 replicates). The variant R56E/R57I/V64R showed nd (0 of 3 replicates). The variant R57T/S107D showed nd (0 of 3 replicates). With R57D/D62H/V64E the result was nd (0 of 3 replicates). For G33P/R57T/V64L, the assay gave nd (0 of 3 replicates). With F27L/S35Y/R57C the result was nd (0 of 3 replicates).

The variant S35D/Y52Q/R57A showed nd (0 of 3 replicates). The variant R57I/S63E/T104H showed nd (0 of 3 replicates). For R57S/F59R/G103C, the assay gave nd (0 of 3 replicates). The variant S35R/R57E/Y60E showed nd (0 of 3 replicates). For R57G/T58V/S63K, the assay gave nd (0 of 3 replicates). For D54H/R57D, the assay gave nd (0 of 3 replicates). The variant D54P/R57C gave nd (0 of 3 replicates). With V50Q/R57L/T104Q the result was nd (0 of 3 replicates). With F27I/S31H/R57F the result was nd (0 of 3 replicates).

For Y52T/R57L/R100E, the assay gave nd (0 of 3 replicates). With L29S/R57N/F105K the result was nd (0 of 3 replicates). The variant T28Y/S31G/R57I gave nd (0 of 3 replicates). For R57M/S63I/F105M, the assay gave nd (0 of 3 replicates).

For reference, the parent read 4.4 nM as the reference entry and 13 µM (one replicate of three) as a member of this library. Nonspecific signal, from three strains lacking the peptide, appeared in 15% of pairings of library AAYL49, centred on 11 µM (5% of these signals below 680 nM); values are not corrected for it.

Source: Engelhart et al. 2022 (doi:10.1038/s41597-022-01779-4), MIT Lincoln Laboratory and A-Alpha Bio; data file from the FLAb repository.